One compound from patent US8889732B2, “Fused heterocyclic compounds and thrombopoietin receptor activators” (Nissan Chemical Industries, Ltd., priority 2009, dated 2014) can be followed below.

By UniProt entry, the sequences of proteins in these tests, tags left out. Residues count along the entry.
UniProt P40238, 26-635 limits assumed: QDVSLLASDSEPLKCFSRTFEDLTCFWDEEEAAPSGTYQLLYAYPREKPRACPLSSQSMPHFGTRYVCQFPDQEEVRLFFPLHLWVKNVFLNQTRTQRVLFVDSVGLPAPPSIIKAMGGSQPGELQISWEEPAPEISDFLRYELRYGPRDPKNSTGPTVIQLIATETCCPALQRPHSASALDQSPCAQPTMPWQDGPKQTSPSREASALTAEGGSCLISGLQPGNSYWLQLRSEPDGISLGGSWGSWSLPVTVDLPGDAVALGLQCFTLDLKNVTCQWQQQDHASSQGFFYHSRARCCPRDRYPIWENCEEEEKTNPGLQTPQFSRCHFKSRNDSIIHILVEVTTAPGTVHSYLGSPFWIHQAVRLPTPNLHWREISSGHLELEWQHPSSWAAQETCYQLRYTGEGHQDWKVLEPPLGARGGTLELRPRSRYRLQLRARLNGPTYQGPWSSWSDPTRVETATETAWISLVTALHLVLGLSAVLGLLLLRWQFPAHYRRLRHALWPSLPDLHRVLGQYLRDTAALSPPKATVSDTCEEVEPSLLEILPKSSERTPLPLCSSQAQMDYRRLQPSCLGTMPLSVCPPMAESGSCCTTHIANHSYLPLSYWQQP

This experiment deals with human thrombopoietin receptor (c-mpl) (Homo sapiens, UniProt P40238). Put plainly: Stimulation of proliferation of thrombopoietin-dependent cell line UT7/EPO-mpl (WST-8). Conditions: concentration yielding growth rate corresponding to 50% of growth of UT-7/EPO-mpl in the presence of 10 ng/mL TPO, 4 days incubation. Here is the method: The responses of thrombopoietin receptor to the compounds of Synthetic Examples of the present invention were assayed using a human leukemic cell line, UT7/EPO-mpl.
UT7/EPO-mpl is a stable transformed cell line obtained by introducing into human leukemic cell line UT7/EPO a vector that induces expression of human thrombopoietin receptor (c-mpl) under control of cytomegalovirus immediate-early promoter by the method of Takatoku et al. (J. Biol. Chem., 272:7259-7263 (1997)). […] These two cell lines were subcultured in IMDM (Invitrogen) containing 10% fetal bovine serum (Thermo Electron or BioWest) using a CO2 incubator (5% CO2, 37° C.).
The subcultured cells described above were washed twice with PBS and suspended in IMDM containing 10% fetal bovine serum at a cell density of 6×10^4 cells/ml. The cell suspension was transferred to a 96-well tissue culture plate (CORNING) in 100-μl aliquots. Then either thrombopoietin (Pepro Tech EC) or the compound of Synthetic Examples dissolved in dimethyl sulfoxide were diluted 83-fold with IMDM containing 10% fetal bovine serum and added to the aforementioned cell suspension in 20-μl aliquots. The cell suspension was incubated in a CO2 incubator (5% CO2, 37° C.) for 4 days. […] The formazan pigment generated was detected by measuring the absorbance at 450 nm with a 96-well microplate reader (Nihon Molecular Devices, Spectramax 190). […]

With `COC(=O)c1ccc(C(=O)N/N=C(\C)c2csc(-c3ccc4c(c3)CCCC4)c2O)cc1[N+](=O)[O-]`, the concentration for a half-maximal effect (EC50) was 5.4 ng/mL.
